Data: US10428101B2, “Preparation of glycosphingosines” (The Regents of the University of California, priority 2013, dated 2019)
Marks after values point to notes of the source that are not given here.

The chains behind the UniProt entries cited, without tags or fusion partners. Where a name states a change or a piece, a line headed by the entry shows the natural chain unless it says otherwise.
UniProt P14769: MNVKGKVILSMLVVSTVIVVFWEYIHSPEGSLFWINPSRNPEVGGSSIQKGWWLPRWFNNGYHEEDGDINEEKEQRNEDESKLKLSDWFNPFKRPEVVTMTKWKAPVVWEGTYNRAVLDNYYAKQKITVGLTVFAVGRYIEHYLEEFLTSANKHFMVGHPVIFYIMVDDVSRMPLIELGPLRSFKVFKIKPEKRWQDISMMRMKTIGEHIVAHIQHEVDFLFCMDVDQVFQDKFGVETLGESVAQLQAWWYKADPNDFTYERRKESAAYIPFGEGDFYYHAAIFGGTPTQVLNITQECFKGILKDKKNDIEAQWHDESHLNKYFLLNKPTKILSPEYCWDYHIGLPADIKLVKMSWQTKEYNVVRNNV

The substances below were run against bovine α1-3-galactosyltransferase (α1-3GalT) (Bos taurus, UniProt P14769) (assay: One-pot four-enzyme α1-3-galactosylation of fluorous-tagged lactoside acceptors (EcGalK, BLUSP, PmPpA, α1-3GalT), conversion by TLC/ImageQuant). Details: acceptor lactoside to Galα1-3 product; OPME galactosylation pH 7.0; assayed at 15 h; TLC and ImageQuant 5.2.

| Substance | Conversion (%) |
| --- | --- |
| LacβProNH—C3F7 [Compound 4] | qt.^[c] |
| LacβProNH-HEG-C8F17 [Compound 6] | 66 ± 1.0^[c] % |
| LacβProNH-C8F17 [Compound 2] | 10 ± 0.0^[c] % |
| LacβProNH-HEG-C6F13 [Compound 8] | 69 ± 1.0^[c] % |
| LacβProNH—C6F13 [Compound 3] | 60 ± 0.5^[c] % |
| LacβProNH-TEG-C6F13 [Compound 7] | 71 ± 0.5^[c] % |
| LacβProNH-TEG-C8F17 [Compound 5] | 81 ± 8.0^[c] % |
